The values that follow come from patent US20100330649A1.

Data set [1] concerns His8-MBP-fl-cytb5 fusion protein.
Data set [2] has as its target His8-cytb5R (soluble form of human cytochrome b5 reductase with N-terminal His8 tag) (human) (UniProt P00387). Put plainly: cell-based or functional assay.

Take “His8-cytb5R (soluble form of human cytochrome b5 reductase with N-terminal His8 tag)”: in data set [1], the Km, µM (steady-state reduction of cytb5 by His8-cytb5R with NADH) was 5 µM; the Vmax, s^-1 (steady-state reduction of cytb5 by His8-cytb5R with NADH, absorbance at 413 nm) was determined as 84 s⁻¹; the “apparent Vmax relative to His8-cytb5-sd” value is reported as “the His8-MBP-fl-cytb5 had an apparent Vmax that was ˜3-fold higher than that of His8-cytb5-sd”.
Turning to His8-MBP-fl-cytb5 fusion protein, the V/K, µM^-1 s^-1 (steady-state reduction of cytb5 by His8-cytb5R with NADH) in data set [2] was found to be 1.7e+07 M⁻¹ s⁻¹.
